# Nrf2 inh – Nrf2 pathway inhibition. A549 ARE-Fluc reporter, luciferase luminescence, 18-24 h. Potency, µM (top dose mostly 46 µM), without a hit: at the top dose activity change, negative = inhibition, usual class: inhibitors. 360,000 compounds, 2.1% hits. AID 504444; note: potency is the fitted concentration of half-maximal effect; % is set by controls: 0 for no effect and ±100 for the full control effect; nearly all actives have a fitted effect of over 60% in size
#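 Two sequential reads on A549 ARE_Fluc cells exposed to compound for 18-24 h: a CellTiter-Fluor fluorescence read for viability, then a luciferase luminescence read for Nrf2/ARE activity.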
# PTAP TSG101 blk – blocks PTAP/TSG101 interaction to inhibit HIV-1 budding. Q99816. Fluorescence polarization, FITC-PTAP peptide / Tsg101 binding. Potency, µM (top dose mostly 115 µM), for the others: top-dose activity change, negative = inhibition, usual class: inhibitors. 340,000 tested, under 10 active. AID 493005; active = well fitted inhibition curve with a large enough effect in the main read-out, with a control signal flat, not every such curve was filed as active; inconclusive = small, poorly fitted or top-dose-only effect, or effect the other way, or a change in a side signal; inactive = no such curve, though single readings can be large or run the other way; note: potency is the fitted concentration of half-maximal effect; % of control where 0% means no effect
#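 FP read-out: FITC-PTAP peptide, 50 nM final, binding Tsg101 binding domain, 10 uM final; 20 min, r.t.; 10 mM HEPES pH 7.5, 0.15 M NaCl, 0.01% Tween 20, 3 mM EDTA, 0.1 mM TCEP.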
# Glioma ERSR ind – induces the endoplasmic reticulum stress response in human glioma cells | U87-MG GRP78 promoter luciferase reporter, 16 h | Potency, µM, for the others: at the highest dose activation, hits mostly activators | 420,000 compounds, 0.02% hits | AID 602332; note: potency is the fitted concentration of half-maximal effect; series mostly up to about 76 µM; % of control where 0% means no effect; nearly all actives have a fitted effect of over 35% in size
#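 ERSR induction read as luciferase luminescence (Bright-Glo, 10 min at room temperature) in stably transfected human U87-MG glioma cells exposed to compounds for 16 h, using GRP78 as sensor.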
# A549 tox-1 – kills or reduces viability of A549 cells in Nrf2 counter-screen. A549 ARE-Fluc cells, CellTiter-Fluor viability, 18-24 h. AID 504648. Potency, µM (series often up to 46 µM), without a hit: at the highest dose activity change, negative = cytotoxicity, usual class: inhibitors. 390,000 compounds, 0.16% hits; note: potency is the fitted concentration of half-maximal effect; % is set by controls: 0 for no effect and ±100 for the full control effect
#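 A549 ARE-Fluc cells in 5% FBS OPTI-MEM, 5000 cells/well, rested 2 h then exposed to compounds in concentration-response for 18-24 h at 37 °C. Viability by CellTiter-Fluor fluorescence (Ex 405/Em 525) after 30 min; luciferase luminescence (BugLite, 15 min, RT) read afterwards.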
# miR-21 reporter – miR-21 reporter, rising signal | HeLa miR-21 FLuc reporter, luciferase, 48 h | Potency, µM (top dose mostly 38.3 µM), inactives show at the top dose reporter change, positive = more light | 340,000 tested, under 10 active | AID 2288; active = well fitted rising curve with a large enough effect; inconclusive = small, poorly fitted or top-dose-only effect; inactive = no such curve, though single readings can be large or run the other way;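 further: % of control where 0% means no effect; miR-21 action dims this reporter so a rising signal means less miR-21 action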
#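 HeLa miR-21-FLuc reporter line, endogenous miR-21; 2000 cells/well in DMEM/10% FBS; compound titration up to ~40uM final, 48 h, 37 degree Celsius; luciferase detection reagent, 15 min lysis, CCD luminescence.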
# Nrf2 activator – Nrf2 pathway activation | AREc32 ARE-luciferase reporter (MCF7-derived line), luminescence, 24 h | Potency, µM (top dose mostly 46.1 µM), without a hit: at the top dose activation, most hits filed as activators | 410,000 compounds, 0.31% hits; note: potency is the fitted concentration of half-maximal effect; % of control where 0% means no effect; nearly all actives have a fitted effect of over 65% in size
#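 ARE-driven firefly luciferase activity in AREc32 cells measured after a 24 hr compound exposure at 37 deg C, using Steady-Glo reagent and a 30 min room-temperature hold.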
# FLuc counter 3 – counter-screen for Nrf2 inhibitors: firefly luciferase enzyme inhibition; Potency, µM (highest dose often 57.5 µM), for the others: at the highest dose activity change, negative = inhibition, actives largely listed as inhibitors; purified firefly luciferase, luminescence inhibition; AID 720522; shares compounds with Nrf2 inh; 1,400 compounds, 4% hits; note: potency is the fitted concentration of half-maximal effect; % is set by controls: 0 for no effect and ±100 for the full control effect; nearly all actives have a fitted effect of over 65% in size
# A549 tox-2 – counter-screen for Nrf2 inhibitors: cytotoxicity in A549 ARE cells; shares compounds with Nrf2 inh; A549 ARE-Fluc cells, cytotoxicity counterscreen; Potency, µM (series often up to 46.1 µM), without a hit: at the highest dose activity change, negative = cytotoxicity, actives largely listed as inhibitors; 1,400 compounds, 2% hits; AID 720523;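 note: potency is the fitted concentration of half-maximal effect; cells exposed to compounds for 18 to 24 hours; % is set by controls: 0 for no effect and ±100 for the full control effect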
# ARE-Fluc inh – reduces Nrf2 ARE reporter signal in A549 cells | shares compounds with Nrf2 inh | A549 ARE-firefly luciferase reporter, luminescence | Potency, µM (series often up to 46.1 µM), without a hit: top-dose activity change, negative = inhibition, actives largely listed as inhibitors | 1,400 compounds, 74% hits | AID 720524; note: potency is the fitted concentration of half-maximal effect; % is set by controls: 0 for no effect and ±100 for the full control effect; nearly all actives have a fitted effect of over 65% in size
# Numbers without * were called inactive; ? = inconclusive; nt = no result given. Only some compounds are listed: those with a hit (about 2.1% of all), similar ones and a draw of the others. Unless noted, calls come from the whole dose curve; as a rule, active = well fitted curve in the direction sought with a large enough effect; inconclusive = small, poorly fitted or top-dose-only effect, or another doubt; inactive = no such curve, though single readings can be large; an effect the other way counts as inactive or inconclusive.
# Codes: A = Nrf2 inh; B = PTAP TSG101 blk; C = Glioma ERSR ind; D = A549 tox-1; E = miR-21 reporter; F = Nrf2 activator; G = FLuc counter 3; H = A549 tox-2; I = ARE-Fluc inh
O=C(Nc1ccccc1F)Nc1ccccc1N1CCCCC1
  A: 5.8µM*	B: 4%	C: -1%	D: ?	E: 16%	F: 5%	G: -13%	H: -2%	I: ?

O=C(O)CCSc1ncnc2sc(-c3ccccc3)cc12
  A: 2.1µM*	B: -1%	C: -14%	D: -14%	E: 29%	F: -2%	G: 9.5µM*	H: -3%	I: 6.5µM*

CN(C)c1ccc(/C=C/c2ccnc3ccc(-c4ccccc4)cc23)cc1
  A: nt	B: nt	C: -1%	D: nt	E: nt	F: nt	G: nt	H: nt	I: nt

CN1CC[C@H](c2c(O)cc(O)c3c(=O)cc(-c4ccccc4Cl)oc23)[C@@H](O)C1
  A: ?	B: nt	C: -4%	D: -21%	E: nt	F: nt	G: nt	H: nt	I: nt

C=C1C[C@H]2[C@@H]3C=C(C)C4=CC(=O)CC[C@]4(C)[C@H]3CC[C@]2(C)[C@@]1(OC(C)=O)C(C)=O
  A: ?	B: -5%	C: 2%	D: -5%	E: nt	F: 0%	G: -1%	H: -9%	I: 0.16µM*

CC(=O)C1(C)CCC2C3C=C(C)C4=CC(=O)CCC4(C)C3CCC21C (stereo not given)
  A: ?	B: -2%	C: -3%	D: -5%	E: nt	F: 0%	G: nt	H: nt	I: nt

Cc1ccc(-c2csc(Cc3nc(-c4cc5ccccc5oc4=O)cs3)n2)cc1
  A: 4.6µM*	B: -2%	C: -2%	D: -3%	E: -2%	F: -1%	G: -1%	H: -4%	I: 7.3µM*

Cc1cc(C)c(-c2csc(Cc3nc(-c4cc5ccccc5oc4=O)cs3)n2)cc1C
  A: ?	B: 1%	C: -2%	D: 1%	E: -8%	F: -1%	G: nt	H: nt	I: nt

O=c1oc2ccccc2cc1-c1csc(Cc2nc(-c3ccc(Br)cc3)cs2)n1
  A: 2.9µM*	B: -8%	C: -4%	D: -16%	E: -2%	F: 0%	G: 2%	H: -3%	I: nt

COc1ccccc1CN(C)CC(=O)c1c(C)[nH]c2ccccc12
  A: nt	B: nt	C: -4%	D: nt	E: nt	F: nt	G: nt	H: nt	I: nt

# Looked up by compound from above, 4 records:
# Codes: A = Nrf2 inh; B = PTAP TSG101 blk; C = Glioma ERSR ind; D = A549 tox-1; E = miR-21 reporter; F = Nrf2 activator; G = FLuc counter 3; H = A549 tox-2; I = ARE-Fluc inh
CN1CC[C@H](c2c(O)cc(O)c3c(=O)cc(-c4ccccc4Cl)oc23)[C@@H](O)C1
  A: ?	B: nt	C: -4%	D: -21%	E: nt	F: nt	G: nt	H: nt	I: nt

COc1ccccc1CN(C)CC(=O)c1c(C)[nH]c2ccccc12
  A: nt	B: nt	C: -4%	D: nt	E: nt	F: nt	G: nt	H: nt	I: nt

O=c1oc2ccccc2cc1-c1csc(Cc2nc(-c3ccc(Br)cc3)cs2)n1
  A: 2.9µM*	B: -8%	C: -4%	D: -16%	E: -2%	F: 0%	G: 2%	H: -3%	I: nt

Cc1ccc(-c2csc(Cc3nc(-c4cc5ccccc5oc4=O)cs3)n2)cc1
  A: 4.6µM*	B: -2%	C: -2%	D: -3%	E: -2%	F: -1%	G: -1%	H: -4%	I: 7.3µM*

# Carrying on.
# Codes: A = Nrf2 inh; B = PTAP TSG101 blk; C = Glioma ERSR ind; D = A549 tox-1; E = miR-21 reporter; F = Nrf2 activator; G = FLuc counter 3; H = A549 tox-2; I = ARE-Fluc inh
N#CC(=C(/N)Sc1ccccc1N)/C(C#N)=C(\N)Sc1ccccc1N
  A: nt	B: nt	C: -1%	D: nt	E: nt	F: nt	G: nt	H: nt	I: nt

O=C1C2=CC[C@H]3C(=O)N(C[C@@H]4CCCO4)C(=O)[C@@H]3[C@@H]2[C@H](O)[C@@H]2O[C@H]12
  A: nt	B: nt	C: -3%	D: nt	E: nt	F: nt	G: nt	H: nt	I: nt

CCCN1CNc2c(c(=O)[nH]c(=S)n2CCc2c(C)cccc2C)C1
  A: 6%	B: nt	C: nt	D: 16%	E: nt	F: nt	G: nt	H: nt	I: nt

COc1ccc(Cl)cc1NC(=O)CSC1=Nc2ccccc2C2=NC(CCC(=O)NCc3ccc(F)cc3)C(=O)N12 (stereo not given)
  A: 3.7µM*	B: nt	C: -4%	D: ?	E: -5%	F: 8%	G: 4%	H: ?	I: 15µM*

O=C(CN1C(=O)c2ccccc2S1(=O)=O)c1ccc2c(c1)OCCCO2
  A: 0.18µM*	B: 0%	C: -17%	D: -2%	E: ?	F: -2%	G: 1%	H: -8%	I: 8.2µM*

O=C(CN1C(=O)c2ccccc2S1(=O)=O)c1ccc2c(c1)OCCO2
  A: 0.073µM*	B: -5%	C: -13%	D: 12%	E: ?	F: -4%	G: -22%	H: 11%	I: 5.2µM*

O=C(CN1C(=O)c2ccccc2S1(=O)=O)c1cccc(Br)c1
  A: -40%	B: -3%	C: -7%	D: -1%	E: -1%	F: 1%	G: nt	H: nt	I: nt

COc1cc(NS(=O)(=O)c2ccc(-c3cc(C)no3)cc2)cc(OC)c1
  A: 6.5µM*	B: nt	C: -3%	D: -4%	E: ?	F: 1%	G: -2%	H: -19%	I: 16µM*

COc1ccccc1CNS(=O)(=O)c1ccc(-c2cc(C)no2)cc1
  A: 1%	B: 0%	C: -7%	D: 0%	E: 24%	F: 0%	G: nt	H: nt	I: nt

Cc1ccc(NC(=O)COC(=O)c2ccccc2OCC(=O)Nc2ccc(Br)cc2)c(C)c1
  A: nt	B: nt	C: -3%	D: nt	E: nt	F: nt	G: nt	H: nt	I: nt

# (cont.)
molecule	Nrf2 inh	PTAP TSG101 blk	Glioma ERSR ind	A549 tox-1	miR-21 reporter	Nrf2 activator	FLuc counter 3	A549 tox-2	ARE-Fluc inh
O=[N+]([O-])c1ccc(O)c(-c2nc(-c3ccccc3)c(-c3cccs3)[nH]2)c1	3.7µM*	2%	-2%	nt	6%	1%	-16%	?	21µM*
O=C(O)c1ccc(-c2nc(-c3ccccc3)c(-c3cccs3)[nH]2)cc1	-15%	0%	5%	-8%	8%	-1%	nt	nt	nt
Nc1nc(=S)c2n[nH]nc2[nH]1	-13%	nt	-5%	-4%	nt	nt	nt	nt	nt
COc1cccc(CN(C)C(=O)CNC(=O)c2ccc(-c3ccccc3)cc2)c1OC	4.6µM*	1%	-4%	-21%	25%	0%	-24%	-11%	nt
CC(=O)Nc1ccc(OCC(O)Cn2c(C)nc3ccccc32)cc1 (stereo not given)	-16%	-6%	-7%	5%	8%	0%	nt	nt	nt
CC(=O)N(C)c1ccc(OCC(O)Cn2c(C)nc3ccccc32)cc1 (stereo not given)	9.2µM*	-6%	-1%	-18%	19%	0%	1%	7%	?
CCOc1ccc(S(=O)(=O)NCc2ccncc2)cc1NC(=O)c1ccccc1	0.46µM*	-4%	-4%	-13%	nt	0%	4%	0%	3.7µM*
CCOc1ccc(S(=O)(=O)NCc2cccnc2)cc1NC(=O)c1ccccc1F	-4%	-4%	6%	-15%	9%	-1%	nt	nt	nt
CCOc1ccc(S(=O)(=O)NCc2ccncc2)cc1NC(=O)c1ccccc1F	2.6µM*	1%	-4%	-12%	-1%	-1%	1%	2%	?
CC(C)[N+](C)(CCOC(=O)C1c2ccccc2Oc2ccccc21)C(C)C	5.2µM*	-3%	-3%	9%	-4%	0%	-1%	-9%	4.6µM*
CC(C)CNC(=O)COC(=O)C1c2ccccc2Oc2ccccc21	2%	0%	-2%	1%	4%	0%	nt	nt	nt
CNc1ccc(C=C2c3ccccc3-c3ccccc32)cc1	nt	nt	-3%	nt	nt	nt	?	-25%	3.7µM*
